Assay results reported in ChEMBL document CHEMBL5126608, “Development, Optimization, and In Vivo Validation of New Imidazopyridine Chemotypes as Dual TLR7/TLR9 Antagonists through Activity-Directed Sequential Incorporation of Relevant Structural Subunits” (J Med Chem, 2022).

Columns and labels:
Type in all cases: cell-based
Set-up in all cases: scale not given: the % may be the effect or the level left
[1] = biological target: T1, Toll-like receptor 8 (Homo sapiens) (UniProt Q9NR97); assay: Antagonist activity at human TLR8 expressed in HEK-blue hTLR8 cells assessed as inhibition of CL075-induced NFkappaB activation at 20 uM preincubated with compound for 1 hrs followed by CL075 addition and measured next day by SEAP-based spectrophotometry assay
T1 sequence (whole entry): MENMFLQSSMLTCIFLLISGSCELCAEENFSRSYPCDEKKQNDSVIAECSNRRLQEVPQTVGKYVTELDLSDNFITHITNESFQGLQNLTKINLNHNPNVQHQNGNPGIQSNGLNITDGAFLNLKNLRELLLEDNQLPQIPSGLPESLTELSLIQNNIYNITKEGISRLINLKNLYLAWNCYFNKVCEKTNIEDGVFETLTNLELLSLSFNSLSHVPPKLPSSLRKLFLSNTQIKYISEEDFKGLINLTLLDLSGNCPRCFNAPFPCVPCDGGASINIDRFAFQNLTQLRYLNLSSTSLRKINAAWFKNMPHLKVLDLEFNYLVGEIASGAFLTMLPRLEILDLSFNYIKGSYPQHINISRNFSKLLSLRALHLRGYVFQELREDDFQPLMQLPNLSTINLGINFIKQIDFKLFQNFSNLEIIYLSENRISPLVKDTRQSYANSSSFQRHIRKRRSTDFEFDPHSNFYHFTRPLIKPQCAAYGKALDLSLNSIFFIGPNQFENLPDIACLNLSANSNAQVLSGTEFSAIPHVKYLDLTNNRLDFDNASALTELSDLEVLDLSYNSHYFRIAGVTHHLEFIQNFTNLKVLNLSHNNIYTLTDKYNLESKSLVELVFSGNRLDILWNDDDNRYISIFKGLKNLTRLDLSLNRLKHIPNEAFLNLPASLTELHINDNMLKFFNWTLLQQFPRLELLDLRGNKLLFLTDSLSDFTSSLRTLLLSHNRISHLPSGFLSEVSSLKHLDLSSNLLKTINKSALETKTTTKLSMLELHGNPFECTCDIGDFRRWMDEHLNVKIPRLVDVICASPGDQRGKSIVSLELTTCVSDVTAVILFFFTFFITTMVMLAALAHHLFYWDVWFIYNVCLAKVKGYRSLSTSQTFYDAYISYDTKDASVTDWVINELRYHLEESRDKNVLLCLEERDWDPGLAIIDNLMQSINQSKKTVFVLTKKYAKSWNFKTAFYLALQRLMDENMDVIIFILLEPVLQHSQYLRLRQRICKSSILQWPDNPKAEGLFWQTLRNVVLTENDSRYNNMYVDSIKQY

[2] = biological target: T2, Toll-like receptor 7 (Homo sapiens) (UniProt Q9NYK1); assay: Antagonist activity at human TLR7 expressed in HEK-blue hTLR7 cells assessed as inhibition of CL264-induced NFkappaB activation at 30 uM preincubated with compound for 1 hrs followed by CL264 addition and measured next day by SEAP-based spectrophotometry assay
T2 sequence (whole entry): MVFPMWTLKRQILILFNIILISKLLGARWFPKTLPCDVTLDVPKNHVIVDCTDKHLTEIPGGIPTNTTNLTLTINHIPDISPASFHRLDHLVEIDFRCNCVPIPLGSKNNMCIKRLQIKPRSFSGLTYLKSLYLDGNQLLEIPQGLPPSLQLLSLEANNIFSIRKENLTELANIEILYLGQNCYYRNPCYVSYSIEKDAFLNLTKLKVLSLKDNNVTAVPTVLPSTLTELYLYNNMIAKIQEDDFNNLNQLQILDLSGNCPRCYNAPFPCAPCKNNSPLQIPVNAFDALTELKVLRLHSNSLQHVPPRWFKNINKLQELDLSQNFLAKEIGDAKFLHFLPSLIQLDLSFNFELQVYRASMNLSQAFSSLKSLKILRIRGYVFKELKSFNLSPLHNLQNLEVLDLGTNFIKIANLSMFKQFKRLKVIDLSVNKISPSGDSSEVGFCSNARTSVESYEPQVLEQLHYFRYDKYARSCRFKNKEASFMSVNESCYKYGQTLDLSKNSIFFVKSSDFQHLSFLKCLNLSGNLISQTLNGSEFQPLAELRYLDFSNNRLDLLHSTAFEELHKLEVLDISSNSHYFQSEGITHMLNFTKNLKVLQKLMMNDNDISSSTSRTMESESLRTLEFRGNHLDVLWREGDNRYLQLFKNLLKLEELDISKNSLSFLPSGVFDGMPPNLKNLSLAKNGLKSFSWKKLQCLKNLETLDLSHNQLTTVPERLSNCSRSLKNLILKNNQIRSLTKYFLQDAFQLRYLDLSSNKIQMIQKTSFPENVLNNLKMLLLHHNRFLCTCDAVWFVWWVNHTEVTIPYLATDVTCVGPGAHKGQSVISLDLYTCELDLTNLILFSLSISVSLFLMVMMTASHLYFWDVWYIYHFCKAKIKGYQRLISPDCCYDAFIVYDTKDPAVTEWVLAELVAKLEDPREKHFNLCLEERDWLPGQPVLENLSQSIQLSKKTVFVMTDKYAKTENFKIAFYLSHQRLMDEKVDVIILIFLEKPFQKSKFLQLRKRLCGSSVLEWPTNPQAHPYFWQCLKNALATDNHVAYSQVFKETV

[3] = biological target: T2, Toll-like receptor 7 (Homo sapiens); assay: Antagonist activity at human TLR7 expressed in HEK-blue hTLR7 cells assessed as inhibition of CL264-induced NFkappaB activation at 40 uM preincubated with compound for 1 hrs followed by CL264 addition and measured next day by SEAP-based spectrophotometry assay
[4] = biological target: T2, Toll-like receptor 7 (Homo sapiens); assay: Antagonist activity at human TLR7 expressed in HEK-blue hTLR7 cells assessed as inhibition of CL264-induced NFkappaB activation at 20 uM preincubated with compound for 1 hrs followed by CL264 addition and measured next day by SEAP-based spectrophotometry assay

| SMILES | Activity [1] | other results |
| --- | --- | --- |
| COc1ccc(-c2nc3cc(N4CCN(C5CCCC5)CC4)ccn3c2NC2CCCCC2)c(OC)c1 | < 20% |  |
| COc1ccc(-c2nc3ccccn3c2N)cc1 |  | Activity [2]: 36% |
| COc1ccc(-c2cn3ccc(N4CCN(C5CCCC5)CC4)cc3n2)c(OC)c1 | < 20% |  |
| COc1ccc(-c2nc3cc(N4CCN(C5CCCC5)CC4)ccn3c2CN2CCCC2)c(OC)c1 | < 20% |  |
| COc1ccc(-c2cn3ccc(N4CCN(C5CCCC5)CC4)cc3n2)c(OCCCN2CCCC2)c1 | 35% |  |
| COc1ccc(-c2nc3cc(N4CCN(C(C)C)CC4)ccn3c2CN2CCCC2)c(OC)c1 | < 20% |  |
| COc1ccc(-c2cn3ccc(N4CCNCC4)cc3n2)c(OCCCN2CCCC2)c1 | < 20% |  |
| COc1ccc(-c2nc3cc(N4CCN(C5CCCC5)CC4)ccn3c2CN2CCOCC2)c(OC)c1 | < 20% |  |
| COc1ccc(-c2cn3ccccc3n2)cc1 |  | Activity [3]: 37% |
| COc1ccc(-c2cn3ccc(N4CCN(C(C)C)CC4)cc3n2)cc1 | < 20% |  |
| COc1ccc(-c2cn3ccccc3n2)c(OC)c1 |  | Activity ([3]; filed as antagonist): 42% |
| COc1ccc(-c2nc3cc(N4CCN(C5CCCC5)CC4)ccn3c2CN2CCCC2)c(OCc2ccccc2)c1 |  | Activity [4]: 15% |
| COc1ccc(-c2nc3ccccn3c2N)c(OC)c1 |  | Activity ([2]; filed as antagonist): 40% |
